Measurements as given in paper PMC11968506, “Toxicokinetics and analytical toxicology of the phenmetrazine-derived new psychoactive substance 3,4-methylenedioxyphenmetrazine studied by means of in vitro systems” (Archives of Toxicology, 2025).

Chains of the proteins cited; added tags and fusions are not shown.
UniProt P05177, whole entry: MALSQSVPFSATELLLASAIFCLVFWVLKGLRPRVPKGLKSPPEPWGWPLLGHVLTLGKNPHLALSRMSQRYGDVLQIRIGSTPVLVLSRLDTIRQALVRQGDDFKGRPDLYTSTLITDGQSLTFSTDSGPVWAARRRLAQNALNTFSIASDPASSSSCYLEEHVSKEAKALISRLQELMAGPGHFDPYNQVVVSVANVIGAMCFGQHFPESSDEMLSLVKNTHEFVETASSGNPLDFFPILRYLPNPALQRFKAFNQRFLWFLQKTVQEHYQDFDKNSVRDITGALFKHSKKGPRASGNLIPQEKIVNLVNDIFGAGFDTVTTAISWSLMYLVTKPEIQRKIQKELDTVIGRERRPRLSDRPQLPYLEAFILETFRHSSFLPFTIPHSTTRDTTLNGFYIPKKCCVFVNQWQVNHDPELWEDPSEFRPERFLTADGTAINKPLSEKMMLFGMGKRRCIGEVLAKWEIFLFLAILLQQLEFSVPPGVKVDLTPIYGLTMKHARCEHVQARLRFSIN

Target: CYP1A2 (Homo sapiens, UniProt P05177)
Assay: CYP inhibition cocktail assay in pHLM, CYP1A2 (phenacetin)
Details: inhibitor 20 µM, phenacetin 12 µM, pHLM 0.4 mg/mL, 15 min; control without inhibitor = 100%

Question: How did the CYP1A2 metabolite formation turn out when O=c1cc(-c2ccccc2)oc2c1ccc1ccccc12 [α-Naphthoflavone, alpha-naphthoflavone, reference compound] was run?
Answer: 7%
